Reference: ChEMBL document CHEMBL1127575, “Synthesis of androst-5-en-7-ones and androsta-3,5-dien-7-ones and their related 7-deoxy analogs as conformational and catalytic probes for the active site of aromatase” (J Med Chem, 1994)

The chains behind the UniProt entries cited, without tags or fusion partners. Where a name states a change or a piece, a line headed by the entry shows the natural chain unless it says otherwise.
UniProt P11511: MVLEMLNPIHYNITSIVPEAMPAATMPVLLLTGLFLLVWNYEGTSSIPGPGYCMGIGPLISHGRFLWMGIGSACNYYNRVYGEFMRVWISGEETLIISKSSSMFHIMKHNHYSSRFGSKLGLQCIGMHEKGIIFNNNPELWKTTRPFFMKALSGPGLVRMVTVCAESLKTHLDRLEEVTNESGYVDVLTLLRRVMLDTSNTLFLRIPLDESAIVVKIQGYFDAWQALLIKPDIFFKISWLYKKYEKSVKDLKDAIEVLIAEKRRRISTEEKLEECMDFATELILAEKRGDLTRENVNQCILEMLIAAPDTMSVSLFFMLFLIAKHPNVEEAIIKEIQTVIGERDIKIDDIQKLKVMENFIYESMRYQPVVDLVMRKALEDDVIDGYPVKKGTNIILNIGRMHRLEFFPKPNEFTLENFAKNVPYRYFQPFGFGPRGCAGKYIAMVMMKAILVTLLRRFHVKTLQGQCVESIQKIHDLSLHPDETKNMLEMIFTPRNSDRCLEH

How the values were obtained:
[1] = target: T1, Aromatase (Homo sapiens, UniProt P11511); assay: In vitro competitive inhibitory activity was measured on Cytochrome P450 19A1 of human placental microsomes
[2] = target: T1, Aromatase; assay: The binding affinity was determined on Cytochrome P450 19A1 by analysis of Dixon plot

C[C@]12CCCC=C1CC[C@@H]1[C@@H]2CC[C@]2(C)C(=O)CC[C@@H]12
IC50 [1]: 110 nM | Ki [2]: 13 nM
